Values quoted from earlier work as cited in patent publication US6395727B1, “Method of treating Bulimia Nervosa and related eating disorders by administration of atypical antipsychotic medications” (The Cincinnati Children's Hospital Research Foundation, priority 1999, dated 2002).

Chains of the proteins cited; added tags and fusions are not shown.
UniProt P10635, whole entry: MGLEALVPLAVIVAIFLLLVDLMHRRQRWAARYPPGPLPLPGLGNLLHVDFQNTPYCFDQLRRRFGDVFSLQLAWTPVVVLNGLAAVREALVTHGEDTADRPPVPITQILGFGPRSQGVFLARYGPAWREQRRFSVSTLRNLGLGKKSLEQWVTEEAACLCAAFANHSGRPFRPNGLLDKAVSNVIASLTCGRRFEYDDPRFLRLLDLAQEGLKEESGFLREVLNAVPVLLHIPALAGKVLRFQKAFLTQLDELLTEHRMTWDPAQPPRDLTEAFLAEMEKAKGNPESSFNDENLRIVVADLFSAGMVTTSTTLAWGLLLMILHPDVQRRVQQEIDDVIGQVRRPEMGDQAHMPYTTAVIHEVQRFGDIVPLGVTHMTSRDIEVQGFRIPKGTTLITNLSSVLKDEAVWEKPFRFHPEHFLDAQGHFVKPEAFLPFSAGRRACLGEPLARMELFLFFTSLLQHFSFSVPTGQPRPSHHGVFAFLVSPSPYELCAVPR

Biological target: cytochrome P450IID6 (Homo sapiens, UniProt P10635)
Details: by cytochrome P450IID6; cited from earlier work

Structure (SMILES): Cc1nc2n(c(=O)c1CCN1CCC(c3noc4cc(F)ccc34)CC1)CCCC2 [risperidone, 3-[2-[4-(6-fluoro-1,2-benzisoxazol-3-yl)-1-piperidinyl]ethyl]-6,7,8,9-tetrahydro-2-methyl-4H-pyrido[1,2-a]pyrimidin-4-one]
- metabolism in the liver to the principle metabolite 9-hydroxyrisperidone: extensively metabolized
